{
  "sequences": {"note": "Chains of the proteins cited; added tags and fusions are not shown. Lines headed by an entry give the natural chain unless they say otherwise; changes in a name come on top.", "UniProt O15379": "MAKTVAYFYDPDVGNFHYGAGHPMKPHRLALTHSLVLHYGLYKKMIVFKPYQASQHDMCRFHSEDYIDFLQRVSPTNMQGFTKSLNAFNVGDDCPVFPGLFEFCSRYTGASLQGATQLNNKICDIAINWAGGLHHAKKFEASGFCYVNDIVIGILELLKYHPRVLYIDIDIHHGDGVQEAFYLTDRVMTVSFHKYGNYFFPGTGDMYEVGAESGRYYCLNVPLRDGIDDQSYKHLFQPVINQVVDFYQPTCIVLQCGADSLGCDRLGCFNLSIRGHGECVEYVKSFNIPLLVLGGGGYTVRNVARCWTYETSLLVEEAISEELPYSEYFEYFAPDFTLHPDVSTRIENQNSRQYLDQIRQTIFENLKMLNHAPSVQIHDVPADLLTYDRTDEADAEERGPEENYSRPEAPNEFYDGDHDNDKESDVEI"},
  "source": "paper PMC8232238",
  "about": "(Cells, 2021)",
  "assay_type_in_all_cases": "biochemical",
  "key": {"[1]": {"target": "T1, HDAC3 (Homo sapiens, UniProt O15379)", "T1 construct": "purchased Reaction Biology corporation (contract assay)", "assay": "HDAC3 enzyme inhibition assay (single point and 10-dose IC50, Reaction Biology)", "conditions": "single point, inhibitor 1.0 μM; average of two measurements, ±2%"}, "[2]": {"target": "T2, HDAC6 (Homo sapiens, UniProt Q9UBN7)", "T2 construct": "purchased Reaction Biology corporation (contract assay)", "T2 sequence (Q9UBN7 1-1215)": "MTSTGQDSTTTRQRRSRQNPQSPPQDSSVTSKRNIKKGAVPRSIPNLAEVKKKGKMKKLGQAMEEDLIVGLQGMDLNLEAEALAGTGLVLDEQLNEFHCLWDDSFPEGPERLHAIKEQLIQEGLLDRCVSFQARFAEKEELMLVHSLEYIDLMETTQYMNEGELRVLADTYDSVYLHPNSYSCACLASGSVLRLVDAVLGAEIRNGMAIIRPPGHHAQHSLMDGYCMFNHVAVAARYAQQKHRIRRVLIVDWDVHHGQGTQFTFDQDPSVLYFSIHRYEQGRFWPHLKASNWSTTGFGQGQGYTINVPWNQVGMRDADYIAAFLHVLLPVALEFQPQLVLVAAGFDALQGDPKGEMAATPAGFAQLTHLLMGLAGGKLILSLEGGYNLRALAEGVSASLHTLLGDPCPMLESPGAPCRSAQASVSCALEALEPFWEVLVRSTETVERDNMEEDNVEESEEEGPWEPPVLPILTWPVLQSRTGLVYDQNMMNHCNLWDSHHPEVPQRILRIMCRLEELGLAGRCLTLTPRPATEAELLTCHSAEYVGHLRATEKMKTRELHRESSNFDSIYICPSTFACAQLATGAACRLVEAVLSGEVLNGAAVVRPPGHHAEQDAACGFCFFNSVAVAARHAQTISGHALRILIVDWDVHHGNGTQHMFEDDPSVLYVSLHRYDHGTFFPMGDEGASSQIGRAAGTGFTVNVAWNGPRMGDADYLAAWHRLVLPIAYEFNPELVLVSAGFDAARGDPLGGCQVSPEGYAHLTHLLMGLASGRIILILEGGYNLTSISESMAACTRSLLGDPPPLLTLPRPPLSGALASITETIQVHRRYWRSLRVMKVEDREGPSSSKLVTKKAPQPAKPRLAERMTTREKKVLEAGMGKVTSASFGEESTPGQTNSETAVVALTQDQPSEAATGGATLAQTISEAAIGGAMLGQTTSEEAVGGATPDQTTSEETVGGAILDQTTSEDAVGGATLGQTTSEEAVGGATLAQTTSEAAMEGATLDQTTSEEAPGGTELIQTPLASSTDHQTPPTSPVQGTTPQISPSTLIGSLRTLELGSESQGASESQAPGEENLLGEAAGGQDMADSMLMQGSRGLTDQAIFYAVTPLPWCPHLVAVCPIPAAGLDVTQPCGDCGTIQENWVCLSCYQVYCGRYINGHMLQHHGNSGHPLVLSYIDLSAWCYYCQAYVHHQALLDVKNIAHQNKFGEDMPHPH", "assay": "HDAC6 enzyme inhibition assay (single point and 10-dose IC50, Reaction Biology)", "conditions": "single point, inhibitor 0.01 μM; average of two measurements, ±2%"}, "[3]": {"target": "T3, HDAC11 (Homo sapiens, UniProt Q96DB2)", "T3 construct": "purchased Reaction Biology corporation (contract assay)", "T3 sequence (Q96DB2 1-347)": "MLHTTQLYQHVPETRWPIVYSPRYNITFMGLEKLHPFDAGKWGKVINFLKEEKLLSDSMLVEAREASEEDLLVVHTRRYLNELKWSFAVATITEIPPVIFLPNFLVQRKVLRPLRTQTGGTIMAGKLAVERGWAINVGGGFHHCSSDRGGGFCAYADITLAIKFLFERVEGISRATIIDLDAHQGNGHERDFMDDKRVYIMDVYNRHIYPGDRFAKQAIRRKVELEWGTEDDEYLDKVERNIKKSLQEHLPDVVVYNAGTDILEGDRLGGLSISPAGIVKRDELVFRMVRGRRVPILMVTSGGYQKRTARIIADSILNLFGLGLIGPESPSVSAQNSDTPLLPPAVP", "assay": "HDAC11 enzyme inhibition assay (single point and 10-dose IC50, Reaction Biology)", "conditions": "single point, inhibitor 1.0 μM; average of two measurements, ±2%"}},
  "data": [
    {"smiles": "O=C(CCCCCN1C(=O)c2cccc3cccc(c23)C1=O)NO", "note": "[scriptaid, reference compound]", "values": [
      {"measurement": "HDAC3 average enzyme isoform activity (percentage of full enzyme activity)", "setting": "[1]", "value": 43.8, "unit": "%"},
      {"measurement": "HDAC6 average enzyme isoform activity (percentage of full enzyme activity)", "setting": "[2]", "value": 39.8, "unit": "%"},
      {"measurement": "HDAC11 average enzyme isoform activity (percentage of full enzyme activity)", "setting": "[3]", "value": 78.6, "unit": "%"}
    ]}
  ]
}
